Source: patent publication US9221746B2, “Homo- and hetero-polyamino-acid derivatives of fullerene C60, method for producing same, and pharmaceutical compositions based on said derivatives” (priority 2011, dated 2015)

Assay: Solubility of the product

With “N-Fullerene γ-Aminobutyric Acid with β-Alanine of the Formula C60(H3){NH(CH2)3COO^−}3(NH3^+CH2—CH2—COOH)3 [Example 2]” as the substance, how does the solubility (CH3CN:H2O (1:1)) read?
The solubility was “incompletely soluble”.

What about the solubility (DMF-H2O) of the same substance?
The solubility was “incompletely soluble”.

And the solubility (dimethyl sulfoxide/water (1:200))?
Its solubility is “soluble”.
